Laboratory results as given in ChEMBL document CHEMBL5338724, “METTL3 from Target Validation to the First Small-Molecule Inhibitors: A Medicinal Chemistry Journey” (J Med Chem, 2023).

Columns and labels:
[1] = Selectivity ratio of IC50 for inhibition of METTL3/METTL14 (unknown origin) to IC50 for inhibition of METTL1/WDR4 (unknown origin)
[2] = Selectivity ratio of IC50 for inhibition of METTL3/METTL14 (unknown origin) to IC50 for inhibition of METTL16 (unknown origin)

SMILES | Ratio IC50 [1] | Ratio IC50 [2]
CNc1ccc2ccc(OCc3cncc(-n4cc([C@@H]5CCCO5)c5c(N)ncnc54)c3)cc2n1 | > 100 | > 100
CCc1cc(N(C)CCOC)c2ccc(CCc3cncc(-n4cc(-c5ccn(C)n5)c5c(N)ncnc54)c3)cc2n1 | > 100 | > 100
Cn1ccc(-c2cn([C@@H]3O[C@H](COc4ccc5ccc(N6CCC6)nc5c4)[C@@H](O)[C@@H]3F)c3ncnc(N)c23)n1 | > 100 | > 100

Further lines, results first:

Ratio IC50 [1] | Ratio IC50 [2] | SMILES
> 100 | – | CNc1ccc2ccc(CCc3cncc(-n4cc(-c5ccn(C)n5)c5c(N)ncnc54)c3)cc2n1
> 100 | > 100 | CCc1cc(NCCOC)c2ccc(CCc3cncc(-n4cc(-c5ccn(C)n5)c5c(N)ncnc54)c3)cc2n1
